Protein sequences, listed by entry. Tags and fused reporters are not part of them. Lines headed by an entry give the natural chain unless they say otherwise; changes in a name come on top.
UniProt P23385: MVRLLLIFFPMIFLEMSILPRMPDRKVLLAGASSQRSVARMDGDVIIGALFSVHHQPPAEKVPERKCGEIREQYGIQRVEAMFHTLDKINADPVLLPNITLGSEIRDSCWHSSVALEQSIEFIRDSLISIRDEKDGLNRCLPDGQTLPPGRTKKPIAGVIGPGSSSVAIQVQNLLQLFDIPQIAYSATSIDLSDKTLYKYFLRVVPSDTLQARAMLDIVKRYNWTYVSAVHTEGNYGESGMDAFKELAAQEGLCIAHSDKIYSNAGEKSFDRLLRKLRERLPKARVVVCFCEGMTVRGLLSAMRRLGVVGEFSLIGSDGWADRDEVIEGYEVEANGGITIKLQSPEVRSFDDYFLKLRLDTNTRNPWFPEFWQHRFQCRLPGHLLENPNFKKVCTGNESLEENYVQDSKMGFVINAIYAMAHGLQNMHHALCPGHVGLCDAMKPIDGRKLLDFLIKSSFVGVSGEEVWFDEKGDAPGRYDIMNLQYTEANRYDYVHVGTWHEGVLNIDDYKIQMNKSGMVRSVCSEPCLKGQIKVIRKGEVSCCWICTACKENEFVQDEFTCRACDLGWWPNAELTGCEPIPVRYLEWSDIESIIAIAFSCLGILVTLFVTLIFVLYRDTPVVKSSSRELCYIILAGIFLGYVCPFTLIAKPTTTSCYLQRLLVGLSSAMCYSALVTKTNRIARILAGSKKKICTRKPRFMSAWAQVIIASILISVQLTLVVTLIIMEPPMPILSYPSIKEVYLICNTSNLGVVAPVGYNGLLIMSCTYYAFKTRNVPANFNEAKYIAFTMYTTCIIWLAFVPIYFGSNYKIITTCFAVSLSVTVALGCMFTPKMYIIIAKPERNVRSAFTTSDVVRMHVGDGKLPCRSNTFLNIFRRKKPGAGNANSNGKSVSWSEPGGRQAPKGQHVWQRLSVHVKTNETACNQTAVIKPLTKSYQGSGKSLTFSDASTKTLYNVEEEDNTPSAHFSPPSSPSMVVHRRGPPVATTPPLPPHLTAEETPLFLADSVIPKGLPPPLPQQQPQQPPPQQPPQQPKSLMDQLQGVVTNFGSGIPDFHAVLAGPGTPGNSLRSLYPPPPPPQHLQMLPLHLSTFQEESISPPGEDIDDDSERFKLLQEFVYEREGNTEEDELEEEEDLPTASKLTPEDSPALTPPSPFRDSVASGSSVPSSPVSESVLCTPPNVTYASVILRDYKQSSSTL

According to ChEMBL document CHEMBL1129857, “Synthesis, molecular modeling, and biology of the 1-benzyl derivative of APDC-an apparent mGluR6 selective ligand” (Bioorg Med Chem Lett, 1997):

Molecular target: Metabotropic glutamate receptor 1 (Rattus norvegicus, UniProt P23385)
Assay: Tested for the agonistic activity against Metabotropic glutamate receptor 1
Format: functional

## N[C@@]1(C(=O)O)CC[C@@H](C(=O)O)C1
  EC50: 42 µM
